# Source: US20260382729A1, “HETEROBIFUNCTIONAL COMPOUNDS AS p53 ACETYLATORS” (published 2026)
# Key:
# [1] = system: PNT2 normal prostate cells; assay: cytotoxicity / cell viability in normal prostate cell line PNT2; conditions: read-out: GI50 (printed G150); PNT2, 72 h
# Experimental: . […] . FIG. 14. […] . PNT2 cells were treated with the indicated compounds at the indicated concentrations for 72 h. The mean value SD for each concentration point (in technical triplicates from three biological experiments) is shown in the bar graph.
# The cell viability assay was performed as previously described.^48 Briefly 5×10^4 cells were seeded per well into 96-well microplates. After 24 h, cells were treated with 3-fold serially diluted compounds in triplicate for 72 h. Cell viability was evaluated using WST-8 reagent (CK04, Dojindo). Absorbance signals were obtained with Infinite F PLEX plate reader (TECAN, Morrisville, NC) at 450 nm with 690 nm as reference wavelength after 3 h incubation at 37 °C. GraphPad Prism 8 was used in the analysis of GI50 values from the data of three independent experiments.
# [2] = system: mRNA levels of p53-target genes in NCI-H1299 p53Y220C cells; assay: RT-qPCR of p53-target genes, NCI-H1299 p53Y220C; conditions: 10 μM, 24 h, vs DMSO
# Experimental: . FIG. 15. RT-qPCR analysis of relative mRNA levels of p53-target genes. NCI-H1299 p53Y220C stable cells were treated with DMSO, PK9328 or MS78 at 10 μM for 24 h. The mRNA expression for each target gene was first normalized to internal GAPDH and then calculated relative to the DMSO control. The mean value±SD for each gene (in technical triplicates from three biological experiments) is shown. ** P<0.01, *** P<0.001, ns: not significant.
# The RT-qPCR was performed as previously described.^47, 49 Briefly, NCI-H1299 p53Y220C stable cells were treated with DMSO or 10 μM of PK9328, Compound 17 or MS78 for 24 h. Total RNA was extracted using the Monarch Total RNA Miniprep Kit (T2010S, New England Biolabs), and cDNA was generated using the SuperScript IV First-Strand Synthesis System (18091050, Thermo Fisher). qPCR was performed using the PowerUp SYBR Green Master Mix (Thermo Fisher Scientific, A25742) on Agilent Technologies Stratagene Mx3005p qPCR system. RxnReady™ premixed primer pairs for p53, p21, TIGAR, BAX, PUMA and MDM2 were purchased from Integrated DNA Technologies, Inc. (Coralville, Iowa). GAPDH forward: 5′-[…]-3′, GAPDH reverse: 5′-GCCATCACGCCACAGTTTC-3′ was used as controls. The mRNA expression for each target gene was first normalized to internal GAPDH and then calculated relative to the DMSO control. Experiments were performed in triplicates.
# BxPC3 cells = assay: clonogenic assay, BxPC3
# Experimental: FIG. 8. […] . GraphPad Prism 8 was used in analysis of raw data. […] . Cells were fixed and stained with crystal violet and the images are representative of two independent experiments. […] . The clonogenic assay was performed as previously described.^48 BxPC3 or NUGC-3 cells (2000 cells per well) were seeded into 12-well tissue culture plates. After 24 h, cells were treated with 0, 1, 3 and 10 μM of indicated compounds for 14 d. Cell medium was changed with fresh full medium containing indicated compounds every 72 h. The plates were then washed with PBS and stained with the solution containing 0.5% (w/v) crystal violet and 6% (v/v) glutaraldehyde for 30 min. The plates were then washed with running water until cell colonies were clear without background color and then dried at room temperature. Epson Perfection V600 Photo was used for the acquisition of the images.
# NUGC-3 cells = assay: cell viability, NUGC-3, 72 h; conditions: NUGC-3; ratio of GI50
# Description: Right: quantification of the normalized p53K382ac level in BxPC3 cells from three independent experiments. *P<0.05, **P<0.01, ***P<0.001. […] . GraphPad Prism 8 was used in analysis of raw data. […] . Cells were fixed and stained with crystal violet and the images are representative of two independent experiments. […] . The tumor-suppressive effect of MS78 in p53Y220C-harboring cancer cell lines was examined. […] . NCI-H1299 (CRL-5803), BxPC3 (CRL-1687) and U-20S (HTB-96) were purchased from the American Tissue Culture Collection (ATCC, Manassas, VA). In addition, NUGC-3 were obtained from the Japan Health Science Research Resources Bank (JCRB, JCRB0822). NCI-H1299, BxPC3 and NUGC-3 were cultured in RPMI 1640 medium (Thermo Fisher Scientific Inc., Waltham, Massachusetts) supplemented with 10% heat-inactivated fetal bovine serum Gibco™ (FBS) (Life Technologies, Grand Island, NY) and 1% Gibco™ Penicillin/Streptomycin (Life Technologies, Grand Island, NY). […]
# (§1) The cell viability assay was performed as previously described.^48 Briefly 5×10^4 cells were seeded per well into 96-well microplates. […] Cell viability was evaluated using WST-8 reagent (CK04, Dojindo). Absorbance signals were obtained with Infinite F PLEX plate reader (TECAN, Morrisville, NC) at 450 nm with 690 nm as reference wavelength after 3 h incubation at 37 °C. […]
# U-2 OS cells = assay: cell viability, U-2 OS (WT p53); conditions: U-2 OS (WT p53), 72 h
# Description: Right: quantification of the normalized p53K382ac level in BxPC3 cells from three independent experiments. *P<0.05, **P<0.01, ***P<0.001. […] . GraphPad Prism 8 was used in analysis of raw data. […] . Cells were fixed and stained with crystal violet and the images are representative of two independent experiments. […] . NCI-H1299 (CRL-5803), BxPC3 (CRL-1687) and U-20S (HTB-96) were purchased from the American Tissue Culture Collection (ATCC, Manassas, VA). In addition, NUGC-3 were obtained from the Japan Health Science Research Resources Bank (JCRB, JCRB0822). NCI-H1299, BxPC3 and NUGC-3 were cultured in RPMI 1640 medium (Thermo Fisher Scientific Inc., Waltham, Massachusetts) supplemented with 10% heat-inactivated fetal bovine serum Gibco™ (FBS) (Life Technologies, Grand Island, NY) and 1% Gibco™ Penicillin/Streptomycin (Life Technologies, Grand Island, NY). […]
# as §1
smiles,measurement,setting,value
CCn1c2ccc(CNCCOCCOCCOCCn3cc(COc4ccc(CCc5nc6cc(-c7c(C)noc7C)ccc6n5CCN5CCOCC5)cc4F)nn3)cc2c2ccc(-c3cc(C)cs3)cc21,GI50,[1],> 10 µM
same,Mdm2 mRNA expression,[2],less upregulation in CDKN1A and Mdm2 compared to PK9328
same,"TIGAR, BAX and PUMA (BBC3) mRNA expression",[2],little or modest effect
same,increase in p21 mRNA expression,[2],8 fold
same,p21 (CDKN1A) mRNA expression,[2],less upregulation in CDKN1A and Mdm2 compared to PK9328
same,clonogenicity,BxPC3 cells,marked reduction in clonogenicity
same,higher potency compared to PK9328,NUGC-3 cells,about 4 fold
same,GI50,U-2 OS cells,> 10 µM
